Reference: patent US20020127717A1, “Preparation of replicating macrophages and use in diagnosis and therapy” (priority 2000, published 2002)

Key:
Format in all cases: cell-based
[1] = system: human Kupffer cell isolates (KC-1, KC-2, KC-3); test: DNA synthesis assay (3H-Thymidine), stimulation by growth factors, Kupffer cell isolates; set-up: key to Stimulation Index of Cultured Target cells: ratio: uptake with stimulatory agent / uptake in medium alone
Method: (§1) DNA Synthesis Assay: DNA synthesis was determined by culturing the cells with ^3H-Thymidine as is standard in the art. The KC isolates used in the assay were at day 21 post liver isolation. The normal endothelial cells and foreskin fibroblasts were cultured in media consisting of RPMI-1640, fetal bovine serum 20% supplemented with specific factors as described in Nakamura S and Salahuddin SZ, Science 242: 426-430,1988. KC isolates were cultured as described above. Cells were harvested between 4 hours and 18 hours culture depending on the stimulatory agent used. A stimulation index was calculated by dividing radioactivity incorporated into cells with the stimulatory agent versus cells in culture medium alone.
(§2) Various growth factors were tested for their ability to stimulate growth of the human Kupffer cell isolates (KC-3) and other cell types. KC isolates used in this experiment were grown in culture for 21 days with MCG medium.

[2] = system: Human Umbilical Vein Endothelial Cells (HUV-E); test: DNA synthesis assay (3H-Thymidine), stimulation by growth factors, HUVE
Method: as §1
(§3) Cultured Cells: Human umbilical vein endothelial cells (HUV-E) were prepared as described in Nakamura et al, Science 1988. Bovine capillary endothelial cells (BCE) were a gift from Dr. Peter Biberfeld of Karolinska Institute, Stockholm, Sweden. Normal human foreskin fibroblasts (HSF) were obtained from the American Type Tissue Culture Collection (ATCC), Rockville, Md. (CRL-1635).
as §2

[3] = system: Human Foreskin Fibroblast Cells (HSF); test: DNA synthesis assay (3H-Thymidine), stimulation by growth factors, HSF; details: HFS
Method: as §1, §3, §2

[4] = system: Bovine Capillary Endothelial Cells (BCE); test: DNA synthesis assay (3H-Thymidine), stimulation by growth factors, BCE
Method: as §1, §3, §2

[5] = system: human Kupffer cell isolates (KC-1, KC-2, KC-3); test: DNA synthesis assay (3H-Thymidine), stimulation by growth factors, Kupffer cell isolates; set-up: key: ratio: uptake with stimulatory agent / uptake in medium alone

IL-2: IL-2 = Natural product, lot # 019, Genzyme Inc.
effect on DNA synthesis of KC isolates (in words) ([1]; KC isolates grown 21 days in MCG medium, summary of Table 3): weakly simulated DNA synthesis | Stimulation Index of Cultured Target cells ([1]; KC-3, HC (hydrocortisone) +): 2.8 | Stimulation Index of Cultured Target cells ([1]; KC-3, HC (hydrocortisone) −): 2.8 | Stimulation Index of Cultured Target cells ([2]; HC (hydrocortisone) +): 3.2 | Stimulation Index of Cultured Target cells ([2]; HC (hydrocortisone) −): 2.8 | Stimulation Index of Cultured Target cells ([3]; HC (hydrocortisone) +): 2.0 | Stimulation Index of Cultured Target cells ([3]; HC (hydrocortisone) −): 2.0 | Stimulation Index of Cultured Target cells ([4]; HC (hydrocortisone) +): 2.8 | Stimulation Index of Cultured Target cells ([4]; HC (hydrocortisone) −): 2.0 | Stimulation Index of Cultured Target cells ([5]; KC-1, HC (hydrocortisone) +): 2.1 | Stimulation Index of Cultured Target cells ([5]; KC-1, HC (hydrocortisone) −): 1.8 | Stimulation Index of Cultured Target cells ([5]; KC-2, HC (hydrocortisone) +): 2.9 | Stimulation Index of Cultured Target cells ([5]; KC-2, HC (hydrocortisone) −): 2.4
